Literature values as cited in patent US11365201B2, “Chlorotonil derivatives” (HELMHOLTZ-ZENTRUM FÜR INFEKTIONSFORSCHUNG GMBH, priority 2017, dated 2022).

Conditions: mice, 4 day suppression test, doses of 36-110 mg/kg, solid form with peanut butter, pilot experiments; cited from earlier work

CC1=C[C@@H](C)C2C3C(=O)C(Cl)(Cl)C(=O)[C@H](C)C(=O)O[C@@H](C)/C=C/C=C\[C@@H](C)[C@@H]3C=C[C@@H]2C1 (stereo partly shown) [Chlorotonil A (ChA), Chlorotonil A, reference compound]
activity, reduced parasitemia: > 90%
